Measurements reported in patent US10338078B2, “Method and apparatus for analyzing biomolecules using Raman spectroscopy” (Japan Science and Technology Agency, priority 2012, dated 2019).

Target: cathepsin B (Homo sapiens, UniProt P07858)
Assay: inhibition of cathepsin B enzyme activity
Conditions: read-out: activity to inhibit cathepsin B, IC50
Text: Persons skilled in the art can appropriately select the position to introduce the Raman label as well as the type of Raman label to introduce by considering the structure of the compound. Moreover, persons skilled in the art having general techniques in the field of organic synthesis can appropriately synthesize a Raman-labeled compound as the low-molecular-weight compound according to the present invention. This is explained with a specific example as follows. Persons skilled in the art can synthesize an AOMK derivative (hereinafter, also referred to as RAT8-AOMK) by Raman-labeling acyloxymethyl ketone (AOMK) (an inhibitor of cathepsin B) with alkyne using general techniques in the field of organic synthesis. The RAT8-AOMK binds to cathepsin B, so as to inhibit its enzyme activity. The activity of RAT8-AOMK to inhibit cathepsin B is represented by IC50=0.3 μM. RAT8-AOMK can be synthesized and obtained by reacting N-Boc-AOMK (IC50=0.05 μM) with 4-nitrophenyl-4-ethynylbenzyl carbonate. Acyloxymethyl ketone (AOMK) is known as a cysteine protease inhibitor. The principle thereof is that a cysteine residue of the active center of an enzyme protein is modified by AOMK, and thus activity as protease is diminished (see FIG. 24).

For `Cc1cccc(C)c1C(=O)OCC(=O)CNC(=O)[C@H](Cc1ccccc1)NC(=O)OC(C)(C)C`, the IC50 was 0.05 µM.
